For 6 molecules, activity change, positive = activation results are on record in PubChem BioAssay AID1508624 (National Center for Advancing Translational Sciences (NCATS), 2021).

Molecules are shown by their SMILES. The entries are a selection whose mix differs from that of the whole data set. Results filed as inconclusive are left out. Active and inactive are the calls of the source. Calls follow the shape of the dose curve; as a rule, active = well fitted activation curve with a large enough effect; inconclusive = small, poorly fitted or top-dose-only effect, or another doubt; inactive = no such curve, though single readings can be large or run the other way.

The nature of the assay: Primary qHTS for Identification of Small Molecule Activators of Huntingtin-Antisense Promoter Activity. Also: nearly all actives have a fitted effect of over 55% in size. To be noted: HEK293 HTT-AS promoter firefly luciferase reporter, 24 h, percent change from vehicle, -100% = no light; at 57.5 µM (top of the series) unless noted. The text has this:
Assay Provider: Russell L. Margolis M.D.
Department Neurology, Johns Hopkins University School of Medicine, Baltimore, MD
Huntington's Disease (HD) is a neurodegenerative disorder caused by a CAG repeat expansion in exon 1 of huntingtin (HTT). While there are currently no disease-modifying treatments for HD, recent efforts have focused on development of nucleotide-based therapeutics to lower HTT expression. As an alternative to siRNA or oligonucleotide methods, we hypothesized that suppression of HTT expression might be accomplished by small molecules that either (1) directly decrease HTT expression by suppressing HTT promoter activity or (2) indirectly decrease HTT expression by increasing the promoter activity of HTT-AS, the gene antisense to HTT that appears to inhibit expression of HTT.
We developed and employed a high throughput screen for modifiers of HTT and HTT-AS promoter activity using luminescent reporter HEK293 cells; of the 52,041 compounds tested, we identified 898 replicable hits. We used a rigorous stepwise approach to assess compound toxicity and the capacity of the compounds to specifically lower huntingtin protein in 5 different cell lines, including HEK293 cells, HD lymphoblastoid cells, mouse primary neurons, HD iPSCs differentiated into cortical-like neurons, and HD hESCs. We found no compounds which were able to lower huntingtin without lowering cell viability in all assays, though the potential efficacy of a few compounds at non-toxic doses could not be excluded.
SEQUENCE No. (1, 2, 3, etc.); […] (e.g., Cells, Incubation, Reagent, etc.); VALUE and DESCRIPTION.
1; Reagent; 4 uL; 2,500 Hek293 luciferase reporter cells per wells
3; Compound; 23 nL; Control inhibitor / compound library
5; Reagent; 2.5 uL; Firefly Luc reagent; Dual-Glo Luciferase Reporter Assay System (Promega)
6; Time; 10 min; room temperature incubation
7; Detection; Luminescence; FLuc
NOTES (numbers refer to sequence above)
1; High-throughput screening, measuring luminescence from a Hek293 luciferase reporter, was performed in 1,536 well white-walled tissue-culture treated plates. 2,500 cells were plated in 4 µL of Opti-MEM per well using a Multidrop Combi Reagent Dispenser (ThermoFisher).
2; Assay plates were cultured for 24 hours.
3; Control inhibitor (PTC124; final concentration of 50 uM) and compound library (at final concentrations of 460 nM - 57.5 uM) were added to the assay plate using the Kalypsis Pintool Robotic System equipped with 1536 pinheads.
4; Cells were then incubated for 24 hours at 37 degrees C prior to luminescence measurements.
5; In all cases, luminescence was measured using the Dual-Glo Luciferase Reporter Assay System (Promega) following the manufacturer's instructions.
6; Room temperature incubation.
7; Luminescence signal was obtained using the PerkinElmer ViewLux plate reader. Results were normalized to vehicle control (0% activity) and zero RLU (-100% activity).
For the molecule `CCNC(C)Cc1ccc2c(c1)OCO2` (stereo unspecified), the activity change, positive = activation is inactive: -10.8% [at 116 µM]. For `Cc1cc([N+](=O)[O-])cc([N+](=O)[O-])c1O`, the activity change, positive = activation is inactive: -91.8% [at 116 µM]. As for `CN(C(=O)Cc1ccccc1)[C@H]1CC[C@@]2(CCCO2)C[C@@H]1N1CCCC1`, the figure is inactive: -3.58%; as for `CCn1c(=O)n([C@@H]2CCN(CC3CCCCCCC3)C[C@@H]2CO)c2ccccc21`, inactive: -12.8%. In the case of `NC(=O)Nc1ccc([As](=O)(O)O)cc1`, the activity change, positive = activation is inactive: -5.25%. Turning to `CN(C(=O)Cc1ccc(Cl)c(Cl)c1)[C@H]1CC[C@@]2(CCCO2)C[C@@H]1N1CCCC1`, the activity change, positive = activation was inactive: -10.4%.
